Sequences of proteins named here, by UniProt entry; tags and fusion partners are left off. Residues count along the entry.
UniProt P49862, 30-253: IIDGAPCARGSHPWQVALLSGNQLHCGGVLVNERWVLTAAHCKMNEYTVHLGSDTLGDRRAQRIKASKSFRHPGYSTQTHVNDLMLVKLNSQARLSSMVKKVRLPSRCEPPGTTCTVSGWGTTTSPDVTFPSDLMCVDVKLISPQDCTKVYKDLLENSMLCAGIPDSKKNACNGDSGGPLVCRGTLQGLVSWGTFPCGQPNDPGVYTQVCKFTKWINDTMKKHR

According to US20220267379A1 (published 2022):

Molecular target: human Kallikrein-related peptidase 7 (hKLK7) (human, UniProt P49862 30-253)

Binder: PCLYLARC (side chains of Cys 2 and Cys 8 connected via 1,3-dibromoacetone) [peptide 114 (KLK7 inhibitor without C-terminal serine)]
- Ki: 0.029 µM
